Test results taken from patent US7960408B2, “Quinolinyl and benzothiazolyl modulators” (Amgen Inc., priority 2000, dated 2011).

Sequences of proteins named here, by UniProt entry; tags and fusion partners are left off.
UniProt P37231, whole entry: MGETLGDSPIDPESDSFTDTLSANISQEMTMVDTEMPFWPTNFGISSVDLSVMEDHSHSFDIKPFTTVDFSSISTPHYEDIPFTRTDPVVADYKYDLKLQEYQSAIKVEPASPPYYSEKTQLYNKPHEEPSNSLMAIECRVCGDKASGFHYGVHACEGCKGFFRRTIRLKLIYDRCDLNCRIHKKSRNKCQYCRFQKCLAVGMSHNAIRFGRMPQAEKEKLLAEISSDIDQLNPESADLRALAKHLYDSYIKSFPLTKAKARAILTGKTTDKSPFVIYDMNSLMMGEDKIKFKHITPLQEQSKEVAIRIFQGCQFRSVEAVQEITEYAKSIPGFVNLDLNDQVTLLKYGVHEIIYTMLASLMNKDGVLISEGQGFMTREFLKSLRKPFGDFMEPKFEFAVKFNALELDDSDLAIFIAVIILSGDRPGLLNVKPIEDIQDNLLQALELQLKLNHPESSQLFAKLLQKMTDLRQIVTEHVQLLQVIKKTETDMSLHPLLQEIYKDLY

Molecular target: PPARγ (Homo sapiens, UniProt P37231)
Experiment: PPARγ ligand binding assay utilizing [3H]-BRL 49653 as the radioligand
Conditions: read-out: PPARγ Binding IC50; concentration required to reduce by 50% the specific binding of [3H]-BRL 49653

| Structure (SMILES) | IC50 |
| --- | --- |
| Cc1cc(S(=O)(=O)Nc2cc(Cl)c(Nc3nc4cc(Cl)cc(Cl)c4s3)c(Cl)c2)c(Cl)cc1Cl | < 1 µM |
| CS(=O)(=O)c1ccc2nc(Nc3c(Cl)cc(NS(=O)(=O)c4ccc(C(F)(F)F)cc4Cl)cc3Cl)sc2c1 | < 1 µM |
| O=S(=O)(Nc1cc(Cl)c(Nc2nc3ccc(Cl)cc3s2)c(Cl)c1)c1ccc(C(F)(F)F)cc1Cl | < 1 µM |
| O=S(=O)(Nc1cc(Cl)c(Nc2nc3cccc(Cl)c3s2)c(Cl)c1)c1ccc(C(F)(F)F)cc1Cl | < 1 µM |
| Cc1ccc2nc(Nc3c(Cl)cc(NS(=O)(=O)c4cc(C)c(Cl)cc4Cl)cc3Cl)sc2c1 | < 1 µM |
| O=S(=O)(Nc1cc(Cl)c(Nc2nc3cc(Cl)cc(Cl)c3s2)c(Cl)c1)c1ccc(Cl)cc1Cl | < 1 µM |

More lines, now with the values ahead:

| IC50 | Structure (SMILES) |
| --- | --- |
| < 1 µM | O=S(=O)(Nc1cc(Cl)c(Nc2nc3cc(Cl)cc(Cl)c3s2)c(Cl)c1)c1ccc(C(F)(F)F)cc1Cl |
| 1 to 10 µM | Cc1ccc(Cl)c2sc(Nc3ccc(NS(=O)(=O)c4ccc(Cl)cc4Cl)cc3Cl)nc12 |
| < 1 µM | Cc1ccc2nc(Nc3c(Cl)cc(NS(=O)(=O)c4ccc(Cl)cc4Cl)cc3Cl)sc2c1 |
| < 1 µM | Cc1cccc2sc(Nc3c(Cl)cc(NS(=O)(=O)c4ccc(C(F)(F)F)cc4Cl)cc3Cl)nc12 |
| < 1 µM | Cc1cc(S(=O)(=O)Nc2cc(Cl)c(Oc3cnc4ccccc4c3)c(Cl)c2)c(Cl)cc1Cl |
| 1 to 10 µM | Cc1ccc(Cl)c2sc(Nc3ccc(NS(=O)(=O)c4ccc(C(F)(F)F)cc4Cl)cc3Cl)nc12 |
| < 1 µM | O=S(=O)(Nc1cc(Cl)c(Nc2nc3cccc(Cl)c3s2)c(Cl)c1)c1ccc(Cl)cc1Cl |
